Values of other authors as cited in patent US6383762B1, “Methods of obtaining compounds that interact with a human serotonin (5-HT2) receptor” (Synaptic Pharmaceutical Corporation, priority 1989, dated 2002).

Amino acid sequences for entries named in this document (tags omitted).
UniProt P14842, whole entry: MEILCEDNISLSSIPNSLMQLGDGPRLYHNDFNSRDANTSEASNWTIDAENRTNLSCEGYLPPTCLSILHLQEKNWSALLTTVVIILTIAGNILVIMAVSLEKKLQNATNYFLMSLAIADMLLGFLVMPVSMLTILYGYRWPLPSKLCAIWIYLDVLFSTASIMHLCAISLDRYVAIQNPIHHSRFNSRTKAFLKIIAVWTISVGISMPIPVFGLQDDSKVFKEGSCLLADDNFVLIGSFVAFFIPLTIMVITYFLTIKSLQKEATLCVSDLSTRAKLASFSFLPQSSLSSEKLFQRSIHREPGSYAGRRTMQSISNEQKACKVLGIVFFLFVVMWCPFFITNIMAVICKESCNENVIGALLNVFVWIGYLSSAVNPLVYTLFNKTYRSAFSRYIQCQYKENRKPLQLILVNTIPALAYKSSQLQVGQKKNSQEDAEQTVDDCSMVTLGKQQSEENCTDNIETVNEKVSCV

Molecular target: T1, 5-HT2 receptor in rat cortical membranes (Rattus norvegicus, UniProt P14842)
T1 construct: rather than in rat cortical membranes; host or cells: rat cortical membranes
Settings: rat cortex; Hoyer et al. 1986; cited from earlier work

SMILES: O=C(CCCN1CCC2(CC1)C(=O)NCN2c1ccccc1)c1ccc(F)cc1 [SPIPERONE]
- Ki: 1.5 nM
